Consider one compound from patent US20120021939A1, “METHOD FOR PROFILING DRUG COMPOUNDS USING PROTEIN KINASE INHIBITORS” (priority 2009, published 2012).

Test [1] has as its system VEGFR kinase. The note with it: lysate from tumor kidney (RCC) of one patient, 144-peptide array, inhibitor added on chip, FIG. 3.
The subject of test [2] is VEGFR kinase and the VEGFR signalling pathway. Description: Kinase activity profiling of tumor lysates on peptide microarray in presence and absence of Sorafinib. It counts as biochemical, human. The note with it: pre-treatment RCC tumor lysate.

Take `CNC(=O)c1cc(Oc2ccc(NC(=O)Nc3ccc(Cl)c(C(F)(F)F)c3)cc2)ccn1` [Sorafinib]: the “changes in peptide phosphorylation versus control (DMSO)” value in test [1] was “majority of the peptides show decreased kinase activity”. Also, the “Test result (inhibition of peptide phosphorylation by PKI)” value is “Inhibition” in test [2] (Patient 1 (Responder)), “Inhibition” in test [2] (Patient 2 (Responder)), “No-Inhibition” in test [2] (Patient 3 (Non Responder)) and “No-Inhibition” in test [2] (Patient 4 (Non Responder)).
